Antibody variant affinities, Ab-14 light chain, assay 1

Target: peptide PDVDLGDISGINAS, taken from heptad repeat 2 (HR2) of SARS-CoV-2 spike.

Parent scFv Ab-14: VH joined to VL by three GGGGS repeats. Changes lie in the light chain CDRs alone.
VH: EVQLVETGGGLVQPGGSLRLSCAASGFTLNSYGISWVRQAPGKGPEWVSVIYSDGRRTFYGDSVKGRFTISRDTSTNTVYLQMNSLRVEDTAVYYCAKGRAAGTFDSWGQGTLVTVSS
VL: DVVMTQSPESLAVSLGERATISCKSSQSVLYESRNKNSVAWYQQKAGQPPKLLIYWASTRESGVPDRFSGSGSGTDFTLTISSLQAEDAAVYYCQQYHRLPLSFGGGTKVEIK

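The starting antibody came from a phage panning campaign against this peptide. The library (AAYL50) carries one to three amino acid substitutions per variant, with no insertions or deletions. AlphaSeq pools MATa yeast showing the antibodies with MATalpha yeast showing the peptide. Pairs that bind mate more often; barcode pairs of the diploids are counted by sequencing. Scores were corrected for input abundance and mapped to Kd with protein pairs of known affinity run in the same pool. There are three technical replicates.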

Changes read parent residue, position, new residue, counted from the first residue of the VL shown. Every variant below is changed at S33 of the VL (sequential numbering). Affinities are written as log10 Kd with Kd in nM; a lower number is a better binder. A pair that was not seen in that replicate is written "n.d."; this usually means weak binding, but a binder can also be missed. Background: pairings of library AAYL50 with three empty control strains gave a value in 18% of cases (median 4.19, 5th percentile 2.99). Values in that range, when seen in few replicates, are hard to tell from nonspecific mating. Also given: how often the same scFv was detected with the empty control strains, with their mean in brackets.

| changes | log10 Kd (nM) by replicate | control signals |
|---|---|---|
| Y31C+S33C+L100S | n.d. n.d. n.d. | 0 of 9 |
| S33R+Y97H | 4.36 n.d. n.d. | 2 of 9 (4.19) |
| K24C+S28M+S33M | n.d. n.d. 3.95 | 3 of 9 (3.90) |
| S28D+S33H+A40L | n.d. n.d. n.d. | 0 of 9 |
| S33Y+S62T+L102W | 1.71 1.88 1.90 | 2 of 9 (4.29) |
| L30Q+S33D+R34K | 0.64 0.77 0.74 | 6 of 9 (4.26) |
| S33K+A57D+S103I | 3.32 3.66 3.20 | 2 of 9 (4.83) |
| L30V+S33G+S103P | n.d. n.d. n.d. | 1 of 9 (4.81) |
| S28W+S33T | 2.67 3.29 n.d. | 0 of 9 |
| S33D+H98A+P101Y | n.d. 2.99 5.31 | 0 of 9 |
| S33C+Q95A | n.d. 3.09 4.32 | 2 of 9 (4.49) |
| S33T+W56R+H98I | 0.44 0.72 0.55 | 2 of 9 (3.53) |
| S26V+S33G+N35W | 1.74 1.87 2.43 | 1 of 9 (3.20) |
| S33G+L100Y+S103F | 0.52 0.81 0.61 | 1 of 9 (2.39) |
| S33Y+R99E | 2.07 1.87 2.67 | 0 of 9 |
| S33M+N37Y+Q95P | n.d. 4.99 n.d. | 3 of 9 (4.43) |
| S33V+Q96M+S103G | 6.18 n.d. n.d. | 1 of 9 (4.21) |
| S33G+N35F+Q96R | 2.22 2.17 2.09 | 5 of 9 (4.70) |
| Q27K+S33G+K36Y | 0.44 0.67 0.46 | 0 of 9 |
| S33Y+N37E+Q96I | 4.58 n.d. n.d. | 2 of 9 (3.96) |
| Q27L+S33G+Q95N | n.d. n.d. n.d. | 0 of 9 |
| Y31F+S33T+A40W | n.d. n.d. n.d. | 1 of 9 (3.29) |
| K24D+S33W+H98Q | n.d. n.d. 3.50 | 2 of 9 (3.31) |
| S33W+S38P+A57I | 3.69 n.d. n.d. | 3 of 9 (4.48) |
| S33K+Y97N+R99W | n.d. 4.81 4.39 | 0 of 9 |
| L30Y+S33D+N35K | 0.64 0.78 0.85 | 1 of 9 (4.10) |
| S33L+Q95W+H98K | 4.17 n.d. n.d. | 0 of 9 |
| S33G+Q96L+P101R | 2.89 2.22 3.03 | 1 of 9 (3.67) |
| K24H+L30T+S33W | 1.06 1.08 1.53 | 1 of 9 (2.60) |
| S33V+S62T+L100D | n.d. n.d. n.d. | 0 of 9 |
| S33P+A57P+Q96H | n.d. 2.74 n.d. | 3 of 9 (4.33) |
| S33E+Q95H+Y97H | 1.97 1.92 2.32 | 0 of 9 |
| Y31L+S33F+Q95N | n.d. n.d. n.d. | 0 of 9 |
| S28I+S33L+L102T | n.d. n.d. n.d. | 1 of 9 (4.29) |
| S33E+S58T | 1.37 1.51 1.51 | 5 of 9 (4.33) |
| V29E+S33I+V39R | n.d. n.d. n.d. | 1 of 9 (3.86) |
| K24R+S33H+A40D | 4.79 4.09 n.d. | 5 of 9 (4.33) |
| S25A+S33H+V39G | n.d. n.d. n.d. | 0 of 9 |
| S25L+S33W | 0.38 0.76 0.66 | 1 of 9 (5.32) |
| K24T+S33W+R60A | 3.59 3.82 n.d. | 2 of 9 (3.97) |
| S33H+A57I+T59I | n.d. n.d. n.d. | 0 of 9 |
| S33I+K36N+R60N | n.d. 4.75 n.d. | 1 of 9 (4.52) |
| S33R+N37E+H98D | n.d. n.d. 1.76 | 0 of 9 |

Data: MIT Lincoln Laboratory AlphaSeq set, Engelhart et al. 2022, doi:10.1038/s41597-022-01779-4, as distributed in FLAb.